Binding of CDR-mutated scFvs to a peptide of the spike HR2 region

The measurements come from Engelhart et al. 2022 (doi:10.1038/s41597-022-01779-4) through the FLAb antibody collection.

Binding partner: SARS-CoV-2 spike HR2 peptide, sequence PDVDLGDISGINAS.

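Phage display of a naive human antibody library on the peptide gave the parent. Library AAYL50 holds single substitutions and randomly drawn double and triple substitutions in the CDRs. In AlphaSeq, yeast of one mating type display the scFv and yeast of the other type display the target. After mating in shaken culture at 30 °C for 16 h, diploids were selected and their barcode pairs sequenced. A regression on co-assayed BCL2-family reference pairs converts the normalised counts of each replicate to an apparent Kd. Mating was done three times.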

Each scFv is VH, the linker GGGGSGGGGSGGGGS, VL, as in the parent Ab-14, and differs from it in the CDRs of the light chain only.
VH: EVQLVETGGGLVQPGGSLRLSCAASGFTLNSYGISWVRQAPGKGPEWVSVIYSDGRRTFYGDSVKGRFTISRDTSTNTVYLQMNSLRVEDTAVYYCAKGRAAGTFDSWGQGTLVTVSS
VL: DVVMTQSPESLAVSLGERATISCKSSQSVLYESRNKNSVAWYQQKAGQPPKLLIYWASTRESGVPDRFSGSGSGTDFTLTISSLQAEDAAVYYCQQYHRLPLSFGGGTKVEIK

The parent's light chain CDRs are KSSQSVLYESRNKNSVA, WASTRES, QQYHRLPLS; each variant's own CDRs replace them letter for letter. Every variant below is changed at Y31 of the VL (sequential numbering). Values are apparent Kd, the geometric mean of the replicates that gave a signal; lower means stronger binding. A pair that was not seen in any replicate is written "no signal"; this usually means weak binding, but a binder can also be missed. Empty control strains, which show no peptide, gave a signal in 18% of pairings with library AAYL50; the median was 15 µM and 95% of these signals were weaker than 970 nM. No background was subtracted. In this assay the parent's reference entry averaged 4.4 nM; its copy inside this library read 48 nM.

With KSSQSVLDESRSKNSVA / WLSTRES / QQYHRLPLS the result was 33 nM (3 of 3 replicates). With KSSQSVLIESRNNNSVA / WASTRER / QQYHRLPLS the result was 5.5 nM (3 of 3 replicates). The variant KSSQSVLVESRYKNSVA / WASTRES / QQYHRLPGS showed 4.9 nM (3 of 3 replicates). With KSYQSVLGESRNKNSVK / WASTRES / QQYHRLPLS the result was no signal (0 of 3 replicates). With KSSQSVLVEMRNKNSVA / WQSTRES / QQYHRLPLS the result was 2.4 µM (2 of 3 replicates). The variant KSSQSVLVESRNKNSVA / MASTRES / QQYHRLPLS showed 2.9 nM (3 of 3 replicates). For KSSQSVLQESRNKNSVA / WNHTRES / QQYHRLPLS, the assay gave 10 µM (1 of 3 replicates). The variant LSSQSVLCESRNKNSVA / WASTRES / AQYHRLPLS gave no signal (0 of 3 replicates).

For KSSQSVLQESRNKNSVA / WASTRES / QQNLRLPLS, the assay gave 1.1 µM (2 of 3 replicates). The variant KSSQSVLRESRNKNSVA / WASTRES / QQYFRLPLS gave 6.8 nM (3 of 3 replicates). For KSSASVLEESRNKNSVA / WASTRES / QQYHRLPVS, the assay gave 130 nM (3 of 3 replicates). The variant KSSQSVLAESRNKNSVA / WASTHES / QQYHRLPLS showed no signal (0 of 3 replicates). The variant KSSQSVLCESRDKNSVA / WASTRES / QQYHRLPLS gave 18 nM (3 of 3 replicates). With KSSQSVLWESRNKNSVA / WASTRES / QQYIRLPLY the result was 1.0 µM (3 of 3 replicates). With HSSQSVLIESRNKNSVA / WASTQES / QQYHRLPLS the result was 190 nM (2 of 3 replicates). The variant KSSQSVLHESRNKNSVA / WAFTRES / QQKHRLPLS gave 42 nM (3 of 3 replicates).

The variant KSVQSVLPESRNKNSVV / WASTRES / QQYHRLPLS showed 16 µM (1 of 3 replicates). With KSSQSVLLESRNHNSVA / WASTRES / QQYHTLPLS the result was 7.4 nM (3 of 3 replicates). For KSSQSVLIESRQKNSVA / WASTRES / QQYHRLPLS, the assay gave 17 nM (3 of 3 replicates). With KTSQSVLWESRNKNSVA / WASTRES / QSYHRLPLS the result was 6.0 nM (3 of 3 replicates). The variant LSSQSVLDESMNKNSVA / WASTRES / QQYHRLPLS gave 21 nM (3 of 3 replicates). The variant KSSQSVLKESRNKNSVA / WSSTRES / QCYHRLPLS showed 95 µM (3 of 3 replicates). The variant KSSQSQLGESRNKNSVK / WASTRES / QQYHRLPLS showed no signal (0 of 3 replicates). The variant KSSQTVLHESRNKNSVA / WASTRES / YQYHRLPLS gave no signal (0 of 3 replicates).

The variant KSSQSVLTESRNKMSVA / WASTRES / LQYHRLPLS gave 68 nM (3 of 3 replicates). The variant KSSQSVLKESRNKNSVA / WASTRES / QQYHMLPES gave no signal (0 of 3 replicates). The variant KSSQSVLNENRNKNSVA / WASMRES / QQYHRLPLS gave 31 nM (3 of 3 replicates). With KSSQSVLEENRNKNSVA / WASTRES / QVYHRLPLS the result was 11 µM (3 of 3 replicates). The variant KSSQSVLCESRNKNSVA / WHSTRES / QQYHTLPLS gave 130 nM (3 of 3 replicates). With KSKQSVLRESRNKNSVA / WASTRES / QQYHWLPLS the result was 240 nM (3 of 3 replicates). With HSSQSVLMESRNKNSVA / GASTRES / QQYHRLPLS the result was 800 pM (3 of 3 replicates). The variant KSSQSVLGESRNKNSVE / WASTRES / QQYHRLPLS gave no signal (0 of 3 replicates).

The variant KHSQSVLAESRNKNSVA / WTSTRES / QQYHRLPLS showed 11 nM (3 of 3 replicates). For KSSQSVLHDSRNKNSVA / WASCRES / QQYHRLPLS, the assay gave 9.7 nM (3 of 3 replicates). The variant KSSQSVLGESRNKNSVA / WASDRES / QQYHRNPLS gave 49 nM (3 of 3 replicates). With KSSQSVLIESRNKNSVA / WASTRES / QFKHRLPLS the result was 64 nM (3 of 3 replicates). The variant KSSQSVLEESRNKNSVA / WASTRES / QLFHRLPLS showed 11 µM (1 of 3 replicates). The variant KSSQTVLTESRNKNSVA / WASTRES / QQVHRLPLS showed 160 µM (1 of 3 replicates). The variant GSSQSVLSESRNKNSVA / WKSTRES / QQYHRLPLS gave 11 µM (3 of 3 replicates). With KSSQSVLTESRNKNSVA / WASTRES / QQYHRLDLS the result was 16 nM (3 of 3 replicates).

The variant KSSQGVLIESRNKNSVN / WASTRES / QQYHRLPLS showed no signal (0 of 3 replicates). With FSSQSVLIESRNKNSVA / WASCRES / QQYHRLPLS the result was 160 nM (3 of 3 replicates). For KSSQSVLSESRNKNSVA / WASTRES / QFYHRLPLS, the assay gave 440 nM (3 of 3 replicates).